Experimental data published in published antibiotic growth screens (doi:10.1038/s41589-023-01349-8).
The list shows a part of the results.

Test system: A. baumannii ATCC 17978
Assay: relative growth (fraction of control); higher = less inhibition
Details: 50 µM

Compound | relative growth
C=CC[C@@H](CC(=O)NCCO)C(=O)N[C@H](COC(=O)[C@@H](CC=C)CC(=O)OC(C)(C)C)Cc1ccccc1 | 0.819
C[C@@H]1CC[C@@]2(OC1)OC1CC3C4CC=C5C[C@@H](O)CC[C@]5(C)C4CC[C@]3(C)C1[C@@H]2C (some centres undefined) | 1.13
O=S1(=O)COC[C@@H](c2ccccc2)N1 | 1.08
CN(C)CC(=O)N[C@@H]1CC[C@H](CC(=O)NCCN2CCCCC2)O[C@H]1CO | 0.987
CO/N=C1\CN(c2nc3c(cc2F)c(=O)c(C(=O)O)cn3C2CC2)CC1CN.CS(=O)(=O)O (centres undefined) | 0.132
CC(C)(C)NC(=O)[C@@H]1CN(Cc2cccnc2)CCN1C[C@H](O)C[C@H](Cc1ccccc1)C(=O)N[C@@H]1c2ccccc2C[C@@H]1O | 0.979
CC[C@]1(O)CC2CN(CCc3c([nH]c4ccccc34)[C@@](C(=O)OC)(c3cc4c(cc3OC)N(C)[C@H]3[C@@](O)(C(=O)OC)[C@H](OC(C)=O)[C@]5(CC)C=CCN6CC[C@]43[C@@H]65)C2)C1.O=S(=O)(O)O (some centres undefined) | 0.965
C[C@H]1Cc2cc(S(=O)(=O)N(C)CC(=O)N3CCOCC3)ccc2N1C(=O)C1CC1 | 1.1
COc1cccc(NC(=O)N[C@H]2C=C[C@@H](CC(=O)N3CCOCC3)O[C@H]2CO)c1 | 1.13
C[C@H](CO)N1C[C@H](C)[C@H](CN(C)C(=O)c2ccccn2)Oc2cc(C#Cc3ccc(F)cc3)ccc2S1(=O)=O | 0.799
CCOC(=O)NNc1nncc2ccccc12.Cl | 0.927
NCC[C@@H]1CC[C@H](NC(=O)C2CC2)[C@H](CO)O1 | 0.95
O=C(O)[C@@H]1CC(=O)N(Cc2cccnc2)C1 | 1.17
Cc1cc(=O)oc2cc(O)c(O)cc12 | 0.937
COc1ccc(CC2c3cc(OC)c(OC)cc3CC[N+]2(C)CCC(=O)OCCCCCOC(=O)CC[N+]2(C)CCc3cc(OC)c(OC)cc3C2Cc2ccc(OC)c(OC)c2)cc1OC.O=S(=O)([O-])c1ccccc1.O=S(=O)([O-])c1ccccc1 (centres undefined) | 1.11
C[C@H]1CCCCN1C(=O)CCS(=O)(=O)c1ccc2c(c1)n(C)c(=O)c(=O)n2C | 1.05
CCCC#Cc1cnc2c(c1)C(=O)N([C@H](C)CO)C[C@H](C)[C@H](CN(C)S(=O)(=O)c1cn(C)cn1)O2 | 0.995
C[C@H](CO)N1C[C@H](C)[C@H](CN(C)C(=O)Nc2cccc(F)c2)Oc2cc(C#CC3(O)CCCC3)ccc2S1(=O)=O | 0.733
COc1ccc(CCNC(=O)[C@@]2(Cc3ccccc3I)c3ccccc3C(=O)N(C3CCCCC3)[C@H]2c2ccc(CO)cc2)cc1 | 1.16
Cc1c(C(=O)O)sc(=O)n1C | 1.2
C=C1CC2C3C=C(C)C4=CC(=O)CC[C@]4(C)C3CC[C@]2(C)[C@@]1(OC(C)=O)C(C)=O (some centres undefined) | 0.98
O=C(C[C@H]1CC[C@@H]2[C@H](COC[C@@H](O)CN2S(=O)(=O)c2ccc(F)cc2)O1)NCCN1CCCCC1 | 0.953
C[C@@H]1CN([C@H](C)CO)S(=O)(=O)c2ccc(C#Cc3ccc(F)cc3)cc2O[C@H]1CN(C)S(=O)(=O)c1cn(C)cn1 | 0.928
CO[C@@H]1CN(C)C(=O)c2ccc(NC(=O)Nc3ccccc3)cc2OC[C@@H](C)N(C(=O)CN(C)C)C[C@@H]1C | 0.998
COc1cc(O)c(C(=O)c2ccccc2)cc1S(=O)(=O)O | 0.941

Compound | relative growth
COc1ncnc2nc[nH]c12 | 0.917
CN1CCN(C(=O)CNS(=O)(=O)c2ccccc2)CC1 | 1.07
CC(=O)OCC(=O)[C@@]1(O)CCC2C3CC[C@@H]4C[C@H](O)CC[C@]4(C)C3C(=O)C[C@@]21C (some centres undefined) | 1.01
CC(=O)O[C@]1(C(C)=O)CCC2C3C=C(Cl)C4=CC(=O)CC[C@]4(C)C3CC[C@@]21C (some centres undefined) | 1.08
C[C@@H]1CN([C@@H](C)CO)S(=O)(=O)c2ccc(-c3cncnc3)cc2O[C@H]1CN(C)C(=O)NC1CCCC1 | 0.852
COc1cc(OC)c2c(=O)c(O)c(-c3ccc(OC)c(OC)c3)oc2c1 | 0.921
C(=N\c1cc(-c2ccccc2)nn1-c1ccccc1)/c1ccccc1 | 1.07
O=C(O)c1cn2cccc(O)c2n1 | 1.08
CCN(CC)CCOC(=O)C(c1ccccc1)C1CCCCC1.Cl (centres undefined) | 0.895
O=C(C[C@H]1C[C@H]2c3cc(NS(=O)(=O)c4ccc(F)cc4)ccc3O[C@H]2[C@@H](CO)O1)NCc1ccccc1F | 1.01
O=C1CN(/N=C/c2ccc(-c3ccc([N+](=O)[O-])cc3)o2)C(=O)[N-]1.[Na+] | 0.949
O=C(O)CC(O)(CC(=O)O)C(=O)O | 0.962
CC(=O)N(C)C[C@@H]1Oc2cc(C#CCN(C)C)ccc2S(=O)(=O)N([C@H](C)CO)C[C@@H]1C | 0.966
CC(=O)OCC(=O)[C@@]1(O)CCC2C3CCC4=CC(=O)C=C[C@]4(C)[C@@]3(Cl)[C@@H](Cl)C[C@@]21C (some centres undefined) | 0.883
C=CC1=C(C)c2cc3[nH]c(cc4nc(cc5[nH]c(cc1n2)c(C)c5CCC(=O)O)C(CCC(=O)O)=C4C)c(C)c3C=C | 1.05
CN(C)CCCNc1ncnc(N)c1[N+](=O)[O-] | 0.857
CO[C@H]1C[C@@H]2CC[C@@H](C)[C@@](O)(O2)C(=O)C(=O)N2CCCC[C@H]2C(=O)O[C@H]([C@H](C)C[C@@H]2CC[C@@H](OCCO)[C@H](OC)C2)CC(=O)[C@H](C)/C=C(\C)[C@@H](O)[C@@H](OC)C(=O)[C@H](C)C[C@H](C)/C=C/C=C/C=C/1C | 0.88
CO[C@H]1O[C@H](COC(=O)NCCCCCC(=O)NO)[C@H](OC(=O)Nc2ccccc2)[C@H](OC(=O)Nc2ccccc2)[C@H]1OC(=O)Nc1ccccc1 | 1.08
CN1C(=O)CC(c2ccccc2)C1=O (centres undefined) | 0.901
COC(=O)[C@H](Cc1ccccc1)N1CC2=C[C@H](C3CC3)n3c(=O)n(C)c(=O)n3[C@@H]2[C@H]1[C@H](O)Cc1ccccc1 | 1.1
O=C(CCN1CCNCC1)N1CCCCC1 | 0.87
C[C@@H]1CN([C@@H](C)CO)S(=O)(=O)c2ccc(-c3cncnc3)cc2O[C@H]1CN(C)C(=O)c1ccc2c(c1)OCO2 | 1
COc1ccc2c(c1)c(-c1ccccc1)nn2-c1ccc(C)cc1 | 0.974
CCOc1ccc(NC2=NC(=O)/C(=C/c3cc(Br)c(OCc4ccccc4)c(OC)c3)S2)cc1 | 0.899
